Assay: Solubility and solids precipitation limits of amines in water
Type: physicochemical
[1] = rich conditions, ambient temperature

SMILES | amine concentration above which solids precipitate [1] | solids precipitation (2 m, loaded with 0.5 moles CO2/mole taurate, ambient temperature) | solids precipitation (3.94 m, loaded with 0.4 moles CO2/mole taurate, 23° C.) | concentration limit by precipitation of solids (partially neutralized by KOH, rich conditions)
CC(C)(N)CO [2-amino-2-methyl-1-propanol] | exceeds 5 m | – | – | –
NCCS(=O)(=O)O [Taurine, 2-amino-ethanesulfonic acid] | greater than 2 m | precipitated solids | precipitated solids | about 3 M
C[C@@H]1CN[C@@H](C)CN1 [2,5-trans-dimethyl piperazine] | exceeds 1 m | – | – | –

Reference: patent US8816078B2, “Acidic gas removal by aqueous amine solvents” (Board of Regents, The University of Texas System, priority 2010, dated 2014)
